Chains of the proteins cited; added tags and fusions are not shown.
UniProt Q9H0R8, whole entry: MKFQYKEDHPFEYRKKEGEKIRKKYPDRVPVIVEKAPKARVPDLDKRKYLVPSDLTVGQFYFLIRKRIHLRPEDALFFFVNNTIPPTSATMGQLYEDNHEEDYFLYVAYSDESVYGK

According to publication PMC6613885:

What was measured:
[1] = target: biotin-labeled 16-mer BECN1 S2E LIR peptide (human); assay: BLI; biotin-LIR peptides (50 µg/ml) on streptavidin biosensors, Atg8-family protein in solution at different concentrations; Octet Red 96; 25°C; global fit, 1:1 model
[2] = target: biotin-labeled 16-mer PIK3C3 S2E LIR peptide (human); assay: as above

fold increase in binding affinity over the wild-type LIR peptide [1]: 3 fold
fold increase in binding over the wild-type LIR peptide [2]: 19 fold
Substance: recombinant GABARAPL1 (biolayer interferometry) (from UniProt Q9H0R8 1-117) (natural protein)
